Literature values as cited in article PMC10349193 (CPT: Pharmacometrics & Systems Pharmacology, 2023).

System: CYP2C19
Set-up: method as in SimCYP library version 19
Details: cited from earlier work

**Q.** Which results are given for `CO[C@H]1/C=C/O[C@@]2(C)Oc3c(C)c(O)c4c(O)c(c(/C=N/N5CCN(C)CC5)c(O)c4c3C2=O)NC(=O)/C(C)=C\C=C\[C@H](C)[C@H](O)[C@@H](C)[C@@H](O)[C@@H](C)[C@H](OC(C)=O)[C@@H]1C` [Rifampicin]?
**A.** CYP2C19 Indmax: 5.5/30/0.32/30/1/1; fuinc (CYP2C19 induction): 5.5/30/0.32/30/1/1
